Test results: publication PMC6517818, “The yeast mitochondrial pyruvate carrier is a hetero‐dimer in its functional state” (The EMBO Journal, 2019)

Sequences of proteins named here, by UniProt entry; tags and fusion partners are left off. A change or cut given only in a name is not applied to a line headed by its entry. Residues count along the entry.
UniProt P53157: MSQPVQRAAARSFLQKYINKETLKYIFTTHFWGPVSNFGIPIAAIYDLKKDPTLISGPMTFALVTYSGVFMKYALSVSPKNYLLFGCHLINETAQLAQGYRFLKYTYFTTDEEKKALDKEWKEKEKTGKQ
UniProt P53311, 21-146: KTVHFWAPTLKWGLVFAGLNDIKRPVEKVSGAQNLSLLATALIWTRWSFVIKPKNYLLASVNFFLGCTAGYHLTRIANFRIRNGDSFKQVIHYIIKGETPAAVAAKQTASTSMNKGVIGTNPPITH

Molecular target: Mpc1 (Mpc1/Mpc3 hetero-dimer, mitochondrial pyruvate carrier) (Saccharomyces cerevisiae, UniProt P53157+P53311)
Assay: biochemical

IC50: 18 ± 8 µM
SMILES: CCCOc1ccccc1-c1nc2nn[nH]c2c(=O)[nH]1 [Zaprinast]
